From article PMC7676998 (Journal of medicinal chemistry, 2019)

Amino acid sequences for entries named in this document (tags omitted).
UniProt P41143, whole entry: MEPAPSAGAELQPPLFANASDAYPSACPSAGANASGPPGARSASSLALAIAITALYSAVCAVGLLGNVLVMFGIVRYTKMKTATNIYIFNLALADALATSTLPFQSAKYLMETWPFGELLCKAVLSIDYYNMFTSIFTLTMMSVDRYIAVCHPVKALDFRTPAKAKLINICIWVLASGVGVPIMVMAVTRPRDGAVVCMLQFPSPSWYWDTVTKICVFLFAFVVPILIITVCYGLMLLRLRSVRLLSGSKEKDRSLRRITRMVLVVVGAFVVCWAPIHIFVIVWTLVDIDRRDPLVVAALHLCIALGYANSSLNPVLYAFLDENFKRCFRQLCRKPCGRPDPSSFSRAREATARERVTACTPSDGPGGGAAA

What was measured:
[1] = target: delta opioid receptor (DOP) (Homo sapiens, UniProt P41143); assay: Radioligand binding, delta opioid receptor; details: 100 nM test compound
[2] = plasma and microsomal protein binding corrected

Row | Compound | percent displacement of bound radioligand, opioid δ [1] | E (hepatic extraction ratio) [2]
1 | CC[C@@H]1CN2CCc3c([nH]c4cccc(O)c34)[C@@H]2C[C@@H]1/C(=C\OC)C(=O)OC [9-hydroxycorynantheidine] | 3.4% | 0.01
2 | CC[C@@H]1CN2CCc3c([nH]c4ccccc34)[C@@H]2C[C@@H]1/C(=C\OC)C(=O)OC [corynantheidine] | – | 0.20
